Measurements reported in ChEMBL document CHEMBL5726273, “Cystathionine-γ-lyase (CSE) inhibitors” (2017).

Sequences of proteins named here, by UniProt entry; tags and fusion partners are left off.
UniProt P32929, whole entry, looked up: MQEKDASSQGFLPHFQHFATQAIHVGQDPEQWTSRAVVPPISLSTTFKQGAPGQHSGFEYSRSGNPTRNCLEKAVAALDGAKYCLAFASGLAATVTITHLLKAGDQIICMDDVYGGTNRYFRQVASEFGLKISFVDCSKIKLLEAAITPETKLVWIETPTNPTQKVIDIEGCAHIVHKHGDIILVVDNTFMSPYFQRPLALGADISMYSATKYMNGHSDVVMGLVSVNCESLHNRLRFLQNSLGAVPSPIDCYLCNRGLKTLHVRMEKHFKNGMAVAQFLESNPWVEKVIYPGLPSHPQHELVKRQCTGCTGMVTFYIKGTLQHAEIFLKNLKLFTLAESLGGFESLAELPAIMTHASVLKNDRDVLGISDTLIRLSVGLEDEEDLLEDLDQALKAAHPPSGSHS

Target: Cystathionine gamma-lyase (Homo sapiens, UniProt P32929)
Test: In Vitro Assay: Test compounds (from DMSO stock solutions) were added to (final concentrations) 20 ug/ml enzyme solution (human, mouse or rat recombinant CSE) plus 50 uM PLP in assay buffer (100 mM potassium phosphate pH 7.6) in 96 well plates in total volume of 190 ul. Plates were incubated for 30 minutes at room temperature before the addition of 10 ul of 200 mM (20× final in assay buffer) DL-Ho

SMILES: NN(CCCc1nnn[nH]1)c1nnn[nH]1
- IC50: ≥ 10 µM
